# Values of other authors as cited in US6242481A, “Methods for the inhibition of angiogenesis with arglabin” (priority 1999, dated 2001).
# Key:
# [1] = test system: pulmonary hemangiomatosis; conditions: in vivo; cited from earlier work
# [2] = test system: tumor-induced angiogenesis in mouse dermis; conditions: cited from earlier work
# [3] = test system: angiogenesis induced by allogeneic spleen cells; conditions: in vivo; cited from earlier work
molecule,measurement,setting,value
Human recombinant interferon (alpha/A): Human recombinant interferon (alpha/A),treatment of pulmonary hemangiomatosis,[1],successfully used
"human interferon beta: human interferon beta (protein, UniProt P01574 22-187, looked up) Interferon beta: MSYNLLGFLQRSSNFQCQKLLWQLNGRLEYCLKDRMNFDIPEEIKQLQQFQKEDAALTIYEMLQNIFAIFRQDSSSTGWNETIVENLLANVYHQINHLKTVLEEKLEKEDFTRGKLMSSLHLKRYYGRILHYLKAKEYSHCAWTIVRVEILRNFYFINRLTGYLRN",inhibition of tumor-induced angiogenesis,[2],inhibit tumor-induced angiogenesis
same,inhibition of angiogenesis induced by allogeneic spleen cells,[3],potent inhibitor
